Results reported in patent US6555124B1, “Use of (meth)acrylic acid copolymers to increase the permeability of mucous membranes” (BASF Aktiengesellschaft, priority 1996, dated 2003).

Test system: caco-2 cell tissue
Assay: Permeation rate of tracer/test substances through caco-2 cell monolayers (Transwell) with polymer added apically
From the text: This cell line forms on polycarbonate membranes a tissue assemblage which is very similar in appearance and protein composition to small intestinal […]. In the Transwell system (from Costar, Bodenheim, Germany), this artificial endothelial tissue separates two chambers, which are filled with medium, into the apical and the basolateral compartment. This design allows the permeation of a substance through the caco-2 tissue layer to be determined. […] An improvement in permeability is indicated by the reversible opening of the tight junctions.
Caco-2 cells were cultivated in DMEM (Dulbeccos Modified Eagle's Medium, from Gibco BRL, Eggenstein, Germany) with 10% FCS (fetal calf serum), 1% L-glutamine and 4.5 mg/ml glucose at 37° C. with 5% CO2 and 95% relative humidity. After trypsinization, the cells were spread at a density of 3×10^5 cells/cm^2 on transwell polycarbonate filters. Cells between the 30th and 50th passage were used to form monolayers. The monolayers were employed in the experiment 15-21 days (medium change every three days) after spreading of the cells.
Before the experiment, the caco-2 cell tissue was washed in the Transwell filter inserts with PBS (phosphate buffer saline). Then the apical compartment was filled with EBSS (Earl's buffered salt solution, pH 6) and the basolateral compartment was filled with DMEM. After addition of the polymer to be tested, which had been neutralized to pH 7, [Kollicoat® MAE 30D (ethyl acrylate/methacrylic acid 1:1, BASF), Eudragit® L100 (methacrylic acid/methyl methacrylate 1:1, Röhm), Eudragit® S100 (methacrylic acid/methyl methacrylate 1:2, Röhm)] in a concentration of 0.5-3% by weight and of the tracer substance into the apical compartment, samples were taken after 24 hours, and the permeation rate of the tracer substance was determined.
The experiments were analyzed by fluorescence spectrophotometry (Spex Fluorolog 1680: excitation wavelength: 488 nm, emission wavelength: 513 nm), and in the case of C22H32N6O4 by HPLC (column material: Vidac C-18; mobile phase: water/acetonitrile/0.1% trifluoroacetic acid; detection: 240 nm), the experimental results are compiled in Table 1. Measurements which were not done have been indicated by “−”.

[1] = Control (no polymer), caco-2 monolayer, apical EBSS pH 6, samples after 24 hours
[2] = with Kollicoat MAE 30 D 1.0% by weight (neutralized to pH 7) apical, 24 hours
[3] = with Kollicoat MAE 30 D 3.0% by weight (neutralized to pH 7) apical, 24 hours

Q: With “fluorescein-isothiocyanate-dextran [Dextran-FITC 4400]” as the substance, how does the Permeation rate [1] read?
A: 0.8 (cm/sec) · 10^−8

Q: And the Permeation rate [2]?
A: 9.6 (cm/sec) · 10^−8

Q: And the Permeation rate [3]?
A: 935 (cm/sec) · 10^−8

Q: What does the source list for “fluorescein-isothiocyanate-dextran [Dextran-FITC 11000]”?
A: Permeation rate [1]: 2.3 (cm/sec) · 10^−8; Permeation rate [2]: 17.0 (cm/sec) · 10^−8; Permeation rate [3]: 769 (cm/sec) · 10^−8
